The values below come from ChEMBL document CHEMBL4732024, “Second-generation tricyclic pyrimido-pyrrolo-oxazine mTOR inhibitor with predicted blood-brain barrier permeability” (RSC Med Chem, 2021).

Amino acid sequences for entries named in this document (tags omitted).
UniProt P08183, whole entry: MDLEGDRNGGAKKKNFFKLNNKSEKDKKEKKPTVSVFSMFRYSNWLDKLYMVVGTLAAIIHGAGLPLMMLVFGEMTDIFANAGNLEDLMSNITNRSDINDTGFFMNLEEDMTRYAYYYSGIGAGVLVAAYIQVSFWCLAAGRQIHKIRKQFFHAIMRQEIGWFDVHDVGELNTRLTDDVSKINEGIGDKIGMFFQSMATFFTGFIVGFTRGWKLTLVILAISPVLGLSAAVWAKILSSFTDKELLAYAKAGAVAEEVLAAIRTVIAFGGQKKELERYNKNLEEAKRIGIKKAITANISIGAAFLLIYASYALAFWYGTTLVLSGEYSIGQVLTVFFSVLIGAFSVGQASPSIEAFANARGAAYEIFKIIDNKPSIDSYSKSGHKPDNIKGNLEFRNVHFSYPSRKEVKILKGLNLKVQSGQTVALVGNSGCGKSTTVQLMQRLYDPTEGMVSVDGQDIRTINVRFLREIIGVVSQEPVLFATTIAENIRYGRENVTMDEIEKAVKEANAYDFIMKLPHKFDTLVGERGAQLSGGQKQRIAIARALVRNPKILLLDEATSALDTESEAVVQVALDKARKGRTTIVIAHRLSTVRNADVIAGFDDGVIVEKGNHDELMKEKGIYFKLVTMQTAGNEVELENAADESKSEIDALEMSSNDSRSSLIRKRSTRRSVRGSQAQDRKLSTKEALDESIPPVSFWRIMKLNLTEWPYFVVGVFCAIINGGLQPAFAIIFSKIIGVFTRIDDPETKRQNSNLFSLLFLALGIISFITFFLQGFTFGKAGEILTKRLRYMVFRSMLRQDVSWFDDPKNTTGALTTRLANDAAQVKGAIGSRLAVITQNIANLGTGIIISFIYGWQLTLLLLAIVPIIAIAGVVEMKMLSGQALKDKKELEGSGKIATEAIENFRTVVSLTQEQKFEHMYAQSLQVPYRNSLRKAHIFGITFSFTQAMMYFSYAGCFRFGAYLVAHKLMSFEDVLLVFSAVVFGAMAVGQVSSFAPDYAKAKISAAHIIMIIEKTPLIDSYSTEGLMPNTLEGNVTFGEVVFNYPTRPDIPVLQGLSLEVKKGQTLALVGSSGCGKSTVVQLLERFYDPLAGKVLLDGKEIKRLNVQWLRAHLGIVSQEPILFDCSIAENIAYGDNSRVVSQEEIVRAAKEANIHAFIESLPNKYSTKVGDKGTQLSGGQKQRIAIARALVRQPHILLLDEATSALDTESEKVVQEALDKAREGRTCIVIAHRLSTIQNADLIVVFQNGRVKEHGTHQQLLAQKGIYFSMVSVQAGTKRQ

In the data set the target is MDR1 (P-gp, ABCB1) (Homo sapiens, UniProt P08183). Kind of data set: Substrate activity at human MDR1 expressed in MDCK cells assessed as efflux ratio of apparent permeability across basolateral to apical side over apical to basolateral side at 1 uM by UPLS-MS/MS analysis. Format: ADME, cell-based. The procedure, abridged:
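TransWell monolayers of CRISPR-Cas9 MDCK cells expressing human MDR1 without endogenous canine MDR1, compared against a control line expressing neither ortholog (MDCK^cMDR1-ko); efflux ratio = Papp basolateral-apical / Papp apical-basolateral; unpaired t-test, p < 0.05.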

As a reminder, the efflux ratio is the permeability from basolateral to apical divided by that in the opposite direction, in the common usage. Turning to `C[C@@H]1COCCN1c1nc(-c2cnc(N)c(C(F)(F)F)c2)nc2c1C[C@@H]1COCCN21`, the efflux ratio at 1 µM came out at 1.
